Earlier results on one compound are cited in publication PMC6527222 (PLoS ONE, 2019).

This data set concerns the target β2-AR. The note with it: given as negative log value; cited from earlier work.

As to `COCCc1ccc(OCC(O)CNC(C)C)cc1` (stereo not shown) [Metoprolol], the “Log Kd at β2-AR” value is -6.89 ± 0.09 [27].
